Results: PMC4740573 (Clinical Drug Investigation, 2015)

Amino acid sequences for entries named in this document (tags omitted). Residues count along the entry.
UniProt P00743, 41-180 limits assumed: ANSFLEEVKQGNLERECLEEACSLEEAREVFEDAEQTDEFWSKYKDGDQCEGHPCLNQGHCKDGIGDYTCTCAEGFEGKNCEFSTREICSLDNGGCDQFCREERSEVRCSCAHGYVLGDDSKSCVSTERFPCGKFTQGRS
UniProt P00743, 234-492 limits assumed: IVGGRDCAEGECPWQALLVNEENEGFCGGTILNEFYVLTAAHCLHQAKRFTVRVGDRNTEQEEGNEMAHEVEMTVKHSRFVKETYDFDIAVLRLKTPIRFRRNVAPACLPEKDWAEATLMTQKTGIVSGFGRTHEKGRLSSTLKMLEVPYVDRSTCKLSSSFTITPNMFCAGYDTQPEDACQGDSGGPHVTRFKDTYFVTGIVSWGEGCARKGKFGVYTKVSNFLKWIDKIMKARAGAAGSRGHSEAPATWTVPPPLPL

Molecular target: factor Xa (FXa) (Bos taurus, UniProt P00743)
Experiment: Anti-FXa, Biophen heparin 6 assay
Assay type: in vivo, human
Conditions: for Anti-FXa A max / Anti-FXa A min / Anti-FXa AUEτ: mean ± SD
[1] = day 4, edoxaban after switching from dabigatran etexilate (treatment 3)
[2] = day 4, edoxaban after switching from rivaroxaban (treatment 2)
[3] = day 4, edoxaban alone (treatment 1)

CN1CCc2nc(C(=O)N[C@@H]3C[C@@H](C(=O)N(C)C)CC[C@@H]3NC(=O)C(=O)Nc3ccc(Cl)cn3)sc2C1 [Edoxaban, edoxaban]
Anti-FXa A max [1]: 2.83 ± 1.27 IU/mL
Anti-FXa A min [1]: 0.100 ± 0.000 IU/mL
Anti-FXa AUEτ [1]: 17.3 ± 5.31 IU/mL·h
Anti-FXa T max (day 4, edoxaban after switching from dabigatran etexilate (treatment 3), median (minimum, maximum)): 1.00 (0.50, 3.00) h
Anti-FXa A max [2]: 3.23 ± 1.10 IU/mL
Anti-FXa A min [2]: 0.17 ± 0.09 IU/mL
Anti-FXa AUEτ [2]: 21.9 ± 5.26 IU/mL·h
Anti-FXa A max [3]: 3.14 ± 0.944 IU/mL
Anti-FXa A min [3]: 0.12 ± 0.03 IU/mL
Anti-FXa AUEτ [3]: 20.7 ± 4.36 IU/mL·h
time to peak effect on anti-FXa (edoxaban alone (treatment 1), return to baseline by 24 h): 1 to 2 h
